Earlier results, collected in patent US20070021352A1, “PREVENTION AND TREATMENT OF HEARING DISORDERS” (Cypress Bioscience, Inc., priority 2005, published 2007).

System: cochlea
Conditions: Guinea pig; perfusion into the cochlea via an osmotic minipump; acoustic trauma

In the case of `Nc1nc2ccc(OC(F)(F)F)cc2s1` [riluzole, 2-amino-6-trofluoromethoxybenzothiazole], the “protection of cochlea from noise-induced damage (mitochondrial damage, cytochrome c translocation, DNA fragmentation, hair cell degeneration)” value is listed as “prevents mitochondrial damage and subsequent translocation of cytochrome c, DNA fragmentation and hair cell degeneration”.
